According to patent US20080261892A1, “Acid Addition Salts of Ac-Phscn-Nh2” (priority 2005, published 2008):

Columns and labels:
[1] = Solution phase stability of free base, methanesulfonic acid salt and nitric acid salt (HPLC), Example 17; format: physicochemical; conditions: solution in distilled water, 25±0.5° C.
Procedure: (§1) All HPLC spectra were taken on a Waters HPLC that included Breeze software, a Waters 2487 Dual λ Absorbance Detector, a Waters 1525 Binary HPLC Pump, and a Waters 717 plus Autosampler. The column was a Phenomenex Synergi 4μ Hydro-RP 80A, 250×4.60 mm 4μ micron. The 40 minute gradient that was used is described in the table below.
A t=0 h timepoint was taken for each solution. The volumetric flasks were placed in a water bath at 25±0.5° C. and, periodically, a 0.7 mL aliquot was removed and the solution analyzed by HPLC as described in Example 15.

[2] = Solid phase stability of free base, methanesulfonic acid salt and nitric acid salt (HPLC), Example 18; format: physicochemical; conditions: solid stored at 25±0.5° C.
Procedure: as §1

In the case of “Ac-Pro-His-Ser-Cys-Asn-NH2 Nitric Acid Salt”, the “% dimer” value ([1]; 0 h) is reported as 6.0%, the “% monomer” value ([1]; 0 h) is reported as 94.0% and the “% dimer” value ([1]; 69 h) is reported as 22.7%. For the same substance, the “% monomer” value ([1]; 69 h) was 77.3%, the “% dimer” value ([1]; 140 h) was 26.8% and the “% monomer” value ([1]; 140 h) was 73.2%. The “% dimer” value ([1]; 213 h) was 27.0%, the “% monomer” value ([1]; 213 h) was 73.0% and the “% dimer” value ([1]; 332 h) was 28.6%. The “% monomer” value ([1]; 332 h) was 71.4%, the “% dimer” value ([1]; 408 h) was 28.9% and the “% monomer” value ([1]; 408 h) was 71.1%. For the same substance, the “% dimer” value ([1]; 479 h) was 30.8%, the “% monomer” value ([1]; 479 h) was 69.2% and the “% dimer” value ([1]; 549 h) was 36.4%. For the same substance, the “% monomer” value ([1]; 549 h) was 63.6%, the “% dimer” value ([1]; 645 h) was 45.9% and the “% monomer” value ([1]; 645 h) was 54.1%. For the same substance, the “% dimer” value ([1]; 720 h) was 54.0%, the “% monomer” value ([1]; 720 h) was 46.0% and the “% dimer” value ([1]; 836 h) was 64.0%. For the same substance, the “% monomer” value ([1]; 836 h) was 36.0%, the “% dimer” value ([2]; 0 h) was 8.0% and the “% monomer” value ([2]; 0 h) was 92.0%. The “% dimer” value ([2]; 161 h) was 7.4%, the “% monomer” value ([2]; 161 h) was 92.6% and the “% dimer” value ([2]; 335 h) was 7.8%. For the same substance, the “% monomer” value ([2]; 335 h) was 92.2%, the “% dimer” value ([2]; 498 h) was 7.2% and the “% monomer” value ([2]; 498 h) was 92.8%. The “% dimer” value ([2]; 670 h) was 7.7%, the “% monomer” value ([2]; 670 h) was 92.3% and the “% dimer” value ([2]; 832 h) was 7.7%. For the same substance, the “% monomer” value ([2]; 832 h) was 92.3%, the “% dimer” value ([2]; 1003 h) was 7.4% and the “% monomer” value ([2]; 1003 h) was 92.6%. The “% dimer” value ([2]; 1170 h) was 7.7%, the “% monomer” value ([2]; 1170 h) was 92.3% and the “% dimer” value ([2]; 1363 h) was 6.7%. The “% monomer” value ([2]; 1363 h) was 93.3%, the “% dimer” value ([2]; 1506 h) was 7.4% and the “% monomer” value ([2]; 1506 h) was 92.6%. For the same substance, the “% dimer” value ([2]; 1698 h) was 7.6% and the “% monomer” value ([2]; 1698 h) was 92.4%.
